From patent publication US20090137001

Test system: fibrinogen (Juridical Foundation The Chemo-Sero-Therapeutic Research Institute)

| Substance | Clotting activity (Japan Pharmacopoeia standard) [U/mg] | Clotting activity (NIBSC standard) [U/mg] |
| --- | --- | --- |
| purified recombinant human thrombin (from human prothrombin expressed in CHO cells, activated with recombinant ecarin) | 1784 | 3218 |
| purified human thrombin derived from plasma (purchased from HTI) | 1790 | 2937 |
